By UniProt entry, the sequences of proteins in these tests, tags left out. Where a name states a change or a piece, a line headed by the entry shows the natural chain unless it says otherwise.
UniProt O00329: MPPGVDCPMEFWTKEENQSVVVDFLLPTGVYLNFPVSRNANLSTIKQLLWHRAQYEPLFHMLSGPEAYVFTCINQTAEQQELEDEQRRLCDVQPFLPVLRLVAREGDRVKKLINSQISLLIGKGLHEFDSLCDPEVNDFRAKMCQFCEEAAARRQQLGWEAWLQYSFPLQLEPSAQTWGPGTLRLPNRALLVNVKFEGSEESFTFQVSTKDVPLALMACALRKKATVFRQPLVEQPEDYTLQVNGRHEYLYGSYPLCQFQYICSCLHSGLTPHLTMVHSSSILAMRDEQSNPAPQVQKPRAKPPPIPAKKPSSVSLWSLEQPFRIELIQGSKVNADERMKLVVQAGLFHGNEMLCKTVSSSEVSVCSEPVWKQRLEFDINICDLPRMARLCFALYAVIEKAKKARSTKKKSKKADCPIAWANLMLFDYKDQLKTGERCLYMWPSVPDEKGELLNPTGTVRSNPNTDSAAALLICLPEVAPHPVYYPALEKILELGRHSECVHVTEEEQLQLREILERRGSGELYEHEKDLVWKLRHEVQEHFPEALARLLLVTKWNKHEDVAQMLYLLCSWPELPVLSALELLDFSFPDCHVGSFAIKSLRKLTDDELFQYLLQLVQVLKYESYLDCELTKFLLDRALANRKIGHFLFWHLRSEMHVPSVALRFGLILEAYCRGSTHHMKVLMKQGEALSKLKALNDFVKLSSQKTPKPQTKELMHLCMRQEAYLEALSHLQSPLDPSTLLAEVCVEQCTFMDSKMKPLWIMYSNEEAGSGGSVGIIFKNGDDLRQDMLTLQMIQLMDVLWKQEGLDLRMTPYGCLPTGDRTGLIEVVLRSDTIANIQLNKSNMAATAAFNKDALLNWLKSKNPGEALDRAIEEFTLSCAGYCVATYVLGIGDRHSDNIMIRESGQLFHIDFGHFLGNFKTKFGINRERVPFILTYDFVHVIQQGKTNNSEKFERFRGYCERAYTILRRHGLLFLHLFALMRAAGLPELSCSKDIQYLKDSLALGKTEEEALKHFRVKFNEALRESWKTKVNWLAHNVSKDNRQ

According to US11618753B2 (priority 2018, dated 2023):

Target: GST-tagged PIK3Cδ in complex with PIK3R1 (Homo sapiens (Human), UniProt O00329)
Experiment: biochemical

Row | SMILES | IC50
1 | COc1ncc(-c2cc(CN3CCC(F)(F)CC3)c3c(N)ncnn23)cc1C(=O)N[C@@H]1CN(C(=O)c2cc(F)ccc2F)C[C@@H]1F [Example 1241, 5-{4-amino-5-[(4,4-difluoropiperidin-1-yl)methyl]pyrrolo[2,1-f][1,2,4]triazin-7-yl}-N-[(3R,4S)-1-(2,5-difluorobenzoyl)-4-fluoropyrrolidin-3-yl]-2-methoxypyridine-3-carboxamide] | > 15 µM
2 | COc1ncc(-c2cc(CN3CCC(F)(F)CC3)c3c(N)ncnn23)cc1C(=O)N[C@@H]1CN(C(=O)c2c(F)cccc2F)C[C@@H]1F [Example 1242, 5-{4-amino-5-[(4,4-difluoropiperidin-1-yl)methyl]pyrrolo[2,1-f][1,2,4]triazin-7-yl}-N-[(3R,4S)-1-(2,6-difluorobenzoyl)-4-fluoropyrrolidin-3-yl]-2-methoxypyridine-3-carboxamide] | > 15 µM
3 | COc1ncc(-c2cc(CN3CCC(F)(F)CC3)c3c(N)ncnn23)cc1C(=O)N[C@@H]1CN(C(=O)c2c(F)cncc2F)C[C@@H]1F [Example 1243, 5-{4-amino-5-[(4,4-difluoropiperidin-1-yl)methyl]pyrrolo[2,1-f][1,2,4]triazin-7-yl}-N-[(3R,4S)-1-(3,5-difluoropyridine-4-carbonyl)-4-fluoropyrrolidin-3-yl]-2-methoxypyridine-3-carboxamide] | > 15 µM
4 | COc1ncc(-c2cc(CN3CCC(F)(F)CC3)c3c(N)ncnn23)cc1C(=O)N[C@@H]1CN(C(=O)c2ncccc2Cl)C[C@@H]1F [Example 1244, 5-{4-amino-5-[(4,4-difluoropiperidin-1-yl)methyl]pyrrolo[2,1-f][1,2,4]triazin-7-yl}-N-[(3R,4S)-1-(3-chloropyridine-2-carbonyl)-4-fluoropyrrolidin-3-yl]-2-methoxypyridine-3-carboxamide] | > 15 µM
5 | COc1ncc(-c2cc(CN3CCC(F)(F)CC3)c3c(N)ncnn23)cc1C(=O)N[C@@H]1CN(C(=O)C2(F)CC2)C[C@@H]1F [Example 1245, 5-{4-amino-5-[(4,4-difluoropiperidin-1-yl)methyl]pyrrolo[2,1-f][1,2,4]triazin-7-yl}-N-[(3R,4S)-4-fluoro-1-(1-fluorocyclopropanecarbonyl)pyrrolidin-3-yl]-2-methoxypyridine-3-carboxamide] | > 15 µM
6 | COc1ncc(-c2cc(CN3CCC(F)(F)CC3)c3c(N)ncnn23)cc1C(=O)N[C@@H]1CN(C(=O)CC(C)(O)C(F)(F)F)C[C@@H]1F (stereo partly drawn) [Example 1246, 5-{4-amino-5-[(4,4-difluoropiperidin-1-yl)methyl]pyrrolo[2,1-f][1,2,4]triazin-7-yl}-N-[(3R,4S)-4-fluoro-1-(4,4,4-trifluoro-3-hydroxy-3-methylbutanoyl)pyrrolidin-3-yl]-2-methoxypyridine-3-carboxamide] | > 15 µM
7 | COc1ncc(-c2cc(CN3CCC(F)(F)CC3)c3c(N)ncnn23)cc1C(=O)N[C@@H]1CN(C(=O)CC(C)C)C[C@@H]1F [Example 1247, 5-{4-amino-5-[(4,4-difluoropiperidin-1-yl)methyl]pyrrolo[2,1-f][1,2,4]triazin-7-yl}-N-[(3R,4S)-4-fluoro-1-(3-methylbutanoyl)pyrrolidin-3-yl]-2-methoxypyridine-3-carboxamide] | > 15 µM
8 | COc1ncc(-c2cc(CN3CCC(F)(F)CC3)c3c(N)ncnn23)cc1C(=O)N[C@@H]1CN(C(=O)c2ccnc(C)c2)C[C@@H]1F [Example 1248, 5-{4-amino-5-[(4,4-difluoropiperidin-1-yl)methyl]pyrrolo[2,1-f][1,2,4]triazin-7-yl}-N-[(3R,4S)-4-fluoro-1-(2-methylpyridine-4-carbonyl)pyrrolidin-3-yl]-2-methoxypyridine-3-carboxamide] | > 15 µM
9 | COc1ncc(-c2cc(CN3CCC(F)(F)CC3)c3c(N)ncnn23)cc1C(=O)N[C@@H]1CN(C(=O)c2ccncc2F)C[C@@H]1F [Example 1250, 5-{4-amino-5-[(4,4-difluoropiperidin-1-yl)methyl]pyrrolo[2,1-f][1,2,4]triazin-7-yl}-N-[(3R,4S)-4-fluoro-1-(3-fluoropyridine-4-carbonyl)pyrrolidin-3-yl]-2-methoxypyridine-3-carboxamide] | > 15 µM
10 | COc1ncc(-c2cc(CN3CCC(F)(F)CC3)c3c(N)ncnn23)cc1C(=O)N[C@@H]1CN(C(=O)c2c(F)cc(F)cc2F)C[C@@H]1F [Example 1251, 5-{4-amino-5-[(4,4-difluoropiperidin-1-yl)methyl]pyrrolo[2,1-f][1,2,4]triazin-7-yl}-N-[(3R,4S)-4-fluoro-1-(2,4,6-trifluorobenzoyl)pyrrolidin-3-yl]-2-methoxypyridine-3-carboxamide] | > 15 µM
11 | COc1ncc(-c2cc(CN3CCC(F)(F)CC3)c3c(N)ncnn23)cc1C(=O)N[C@@H]1CN(C(=O)c2ccccn2)C[C@@H]1F [Example 1254, 5-{4-amino-5-[(4,4-difluoropiperidin-1-yl)methyl]pyrrolo[2,1-f][1,2,4]triazin-7-yl}-N-[(3R,4S)-4-fluoro-1-(pyridine-2-carbonyl)pyrrolidin-3-yl]-2-methoxypyridine-3-carboxamide] | > 15 µM
12 | COc1ncc(-c2cc(CN3CCC(F)(F)CC3)c3c(N)ncnn23)cc1C(=O)N[C@@H]1CN(C(=O)c2cnccc2C(F)(F)F)C[C@@H]1F [Example 1255, 5-{4-amino-5-[(4,4-difluoropiperidin-1-yl)methyl]pyrrolo[2,1-f][1,2,4]triazin-7-yl}-N-[(3R,4S)-4-fluoro-1-[4-(trifluoromethyl)pyridine-3-carbonyl]pyrrolidin-3-yl]-2-methoxypyridine-3-carboxamide] | > 15 µM
13 | COc1ncc(-c2cc(CN3CCC(F)(F)CC3)c3c(N)ncnn23)cc1C(=O)N[C@@H]1CN(C(=O)c2cscn2)C[C@@H]1F [Example 1256, 5-{4-amino-5-[(4,4-difluoropiperidin-1-yl)methyl]pyrrolo[2,1-f][1,2,4]triazin-7-yl}-N-[(3R,4S)-4-fluoro-1-(1,3-thiazole-4-carbonyl)pyrrolidin-3-yl]-2-methoxypyridine-3-carboxamide] | > 15 µM
14 | COc1ncc(-c2cc(CN3CCC(F)(F)CC3)c3c(N)ncnn23)cc1C(=O)N[C@@H]1CN(C(=O)CC(C)C(F)(F)F)C[C@@H]1F (stereo partly drawn) [Example 1258, 5-{4-amino-5-[(4,4-difluoropiperidin-1-yl)methyl]pyrrolo[2,1-f][1,2,4]triazin-7-yl}-N-[(3R,4S)-4-fluoro-1-(4,4,4-trifluoro-3-methylbutanoyl)pyrrolidin-3-yl]-2-methoxypyridine-3-carboxamide] | > 15 µM
15 | COc1ncc(-c2cc(CN3CCC(F)(F)CC3)c3c(N)ncnn23)cc1C(=O)N[C@@H]1CN(C(=O)c2cc(C)ncc2F)C[C@@H]1F [Example 1259, 5-{4-amino-5-[(4,4-difluoropiperidin-1-yl)methyl]pyrrolo[2,1-f][1,2,4]triazin-7-yl}-N-[(3R,4S)-4-fluoro-1-(5-fluoro-2-methylpyridine-4-carbonyl)pyrrolidin-3-yl]-2-methoxypyridine-3-carboxamide] | > 15 µM
16 | COc1ncc(-c2cc(CN3CCC(F)(F)CC3)c3c(N)ncnn23)cc1C(=O)N[C@@H]1CN(C(=O)C(C)(C)O)C[C@@H]1F [Example 1260, 5-{4-amino-5-[(4,4-difluoropiperidin-1-yl)methyl]pyrrolo[2,1-f][1,2,4]triazin-7-yl}-N-[(3R,4S)-4-fluoro-1-(2-hydroxy-2-methylpropanoyl)pyrrolidin-3-yl]-2-methoxypyridine-3-carboxamide] | > 15 µM
17 | COc1ncc(-c2cc(CN3CCC(F)(F)CC3)c3c(N)ncnn23)cc1C(=O)N[C@@H]1CN(C(=O)c2ccc(F)c(F)c2)C[C@@H]1F [Example 1262, 5-{4-amino-5-[(4,4-difluoropiperidin-1-yl)methyl]pyrrolo[2,1-f][1,2,4]triazin-7-yl}-N-[(3R,4S)-1-(3,4-difluorobenzoyl)-4-fluoropyrrolidin-3-yl]-2-methoxypyridine-3-carboxamide] | > 15 µM
18 | COc1ncc(-c2cc(CN3CCC(F)(F)CC3)c3c(N)ncnn23)cc1C(=O)N[C@@H]1CN(C(=O)c2ccc(F)cn2)C[C@@H]1F [Example 1264, 5-{4-amino-5-[(4,4-difluoropiperidin-1-yl)methyl]pyrrolo[2,1-f][1,2,4]triazin-7-yl}-N-[(3R,4S)-4-fluoro-1-(5-fluoropyridine-2-carbonyl)pyrrolidin-3-yl]-2-methoxypyridine-3-carboxamide] | > 15 µM
19 | COc1ncc(-c2cc(CN3CCC(F)(F)CC3)c3c(N)ncnn23)cc1C(=O)N[C@@H]1CN(C(=O)C(C)C(F)(F)F)C[C@@H]1F (stereo partly drawn) [Example 1266, 5-{4-amino-5-[(4,4-difluoropiperidin-1-yl)methyl]pyrrolo[2,1-f][1,2,4]triazin-7-yl}-N-[(3R,4S)-4-fluoro-1-(3,3,3-trifluoro-2-methylpropanoyl)pyrrolidin-3-yl]-2-methoxypyridine-3-carboxamide] | > 15 µM
20 | COc1ncc(-c2cc(CN3CCC(F)(F)CC3)c3c(N)ncnn23)cc1C(=O)N[C@@H]1CN(C(=O)c2cc(F)cc(F)c2)C[C@@H]1F [Example 1267, 5-{4-amino-5-[(4,4-difluoropiperidin-1-yl)methyl]pyrrolo[2,1-f][1,2,4]triazin-7-yl}-N-[(3R,4S)-1-(3,5-difluorobenzoyl)-4-fluoropyrrolidin-3-yl]-2-methoxypyridine-3-carboxamide] | > 15 µM
21 | COc1ncc(-c2cc(CN3CCC(F)(F)CC3)c3c(N)ncnn23)cc1C(=O)N[C@@H]1CN(C(=O)c2ccncc2Cl)C[C@@H]1F [Example 1268, 5-{4-amino-5-[(4,4-difluoropiperidin-1-yl)methyl]pyrrolo[2,1-f][1,2,4]triazin-7-yl}-N-[(3R,4S)-1-(3-chloropyridine-4-carbonyl)-4-fluoropyrrolidin-3-yl]-2-methoxypyridine-3-carboxamide] | > 15 µM
22 | COc1ncc(-c2cc(CN3CCC(F)(F)CC3)c3c(N)ncnn23)cc1C(=O)N[C@@H]1CN(C(=O)c2ncccc2F)C[C@@H]1F [Example 1269, 5-{4-amino-5-[(4,4-difluoropiperidin-1-yl)methyl]pyrrolo[2,1-f][1,2,4]triazin-7-yl}-N-[(3R,4S)-4-fluoro-1-(3-fluoropyridine-2-carbonyl)pyrrolidin-3-yl]-2-methoxypyridine-3-carboxamide] | > 15 µM
